This note sets out measurements from patent publication US20030144346A1, “Methods and compositions for regulation of 5-alpha reductase activity” (priority 1997, published 2003).

Structures are written as SMILES.

The target in experiment [1] is T1, type 2 human 5α-reductase (HRED2) (Homo sapiens, UniProt P31213).
T1 sequence (P31213 1-254): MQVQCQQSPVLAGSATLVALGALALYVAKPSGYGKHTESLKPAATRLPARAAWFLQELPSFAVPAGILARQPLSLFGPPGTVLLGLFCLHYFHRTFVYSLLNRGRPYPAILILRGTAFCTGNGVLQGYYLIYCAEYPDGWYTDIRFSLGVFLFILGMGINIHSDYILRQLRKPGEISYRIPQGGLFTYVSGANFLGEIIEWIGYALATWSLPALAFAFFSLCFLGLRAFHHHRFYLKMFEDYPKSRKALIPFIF
In words: Cell free assay of 5α-reductase, microsomes of rat 1A cells expressing type 2 isoenzyme (HRED2).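 Also: labeled testosterone and its product dihydrotestosterone measured in microsomal reaction extracts via thin layer chromatography plus radioanalytic scanning.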 Set-up: expressed in transfected cells; host or cells: rat 1A cells infected with pMV7 retrovirus; microsomes. The format is biochemical.

The target of experiment [2] is T2, type 1 human 5α-reductase (HRED1) (Homo sapiens, UniProt P18405).
T2 sequence (P18405 1-259): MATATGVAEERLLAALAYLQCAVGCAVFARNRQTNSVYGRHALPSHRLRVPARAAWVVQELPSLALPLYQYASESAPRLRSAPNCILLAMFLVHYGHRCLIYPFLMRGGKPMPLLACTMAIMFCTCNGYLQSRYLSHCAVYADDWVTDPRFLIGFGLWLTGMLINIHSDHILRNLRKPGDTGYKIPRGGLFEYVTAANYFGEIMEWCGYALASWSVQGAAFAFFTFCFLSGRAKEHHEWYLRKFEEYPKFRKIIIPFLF
The experiment is described as follows: Cell free assay of 5α-reductase, microsomes of rat 1A cells expressing type 1 isoenzyme (HRED1).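 Also: microsomes from rat 1A cells expressing human type 1 5α-reductase, conversion of radiolabeled testosterone to dihydrotestosterone quantified by thin layer chromatography with radioanalytic scanning.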 The format is biochemical. Details: expressed in transfected cells; host or cells: rat 1A cells infected with pMV7 retrovirus; microsomes. The following applies: read-out: HRED1 % Inhibition @ 100 uM.

The target of experiment [3] is T1, type 2 human 5α-reductase (HRED2). The experiment is described as follows: Whole cell assay of 5α-reductase, type 2 isoenzyme.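 Also: intact rat 1A cells genetically modified to carry human type 2 5α-reductase served as the enzyme source.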 The format is cell-based. Details: expressed in transfected cells; host or cells: rat 1A cells infected with pMV7 retrovirus. To be noted: Table 7.

As for `O=c1c(O)c(-c2ccc(O)cc2)oc2cc(O)cc(O)c12` [Kaempferol], the “inhibitory activity against type 2 isoenzyme, in words” value in experiment [1] (cell-free assay) is given as “effective inhibitors”.
By inhibition is commonly meant the drop in the measured response relative to a control, in per cent. As for `O=c1c(-c2ccc(O)cc2)coc2cc(O)cc(O)c12` [Genistein], the inhibition at 100 µM came out at 16% in experiment [2], 76% in experiment [1] (read-out: HRED2 % Inhibition @ 100 uM) and 89% in experiment [3].
